Drawing on patent US10053431B2, “Tetrahydro-benzodiazepinones” (priority 2013, dated 2018), this text covers IC50 for 17 compounds.

The chains behind the UniProt entries cited, without tags or fusion partners. A line that says so, or that is headed by a name, gives the form on record, which may keep a tag or linker. Residues count along the entry.
UniProt P98170, 124-240 with tags or gaps C202A/C213G limits assumed: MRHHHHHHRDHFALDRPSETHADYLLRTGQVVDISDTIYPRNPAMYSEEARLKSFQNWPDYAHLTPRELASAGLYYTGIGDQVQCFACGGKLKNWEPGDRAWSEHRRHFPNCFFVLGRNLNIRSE
UniProt P98170, 241-356 with tags or gaps limits assumed: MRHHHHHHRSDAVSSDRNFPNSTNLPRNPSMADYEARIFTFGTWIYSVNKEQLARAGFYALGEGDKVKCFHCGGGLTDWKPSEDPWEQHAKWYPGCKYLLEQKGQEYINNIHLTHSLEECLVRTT

One experiment addresses BIR2 domain of XIAP (Homo sapiens (Human), UniProt P98170, C202A/C213G). Briefly: TR-FRET assay for BIR2 (inhibition of binding of XIAP BIR2 domain to SMAC-derived Peptide A). The conditions noted are these: 6x His-tagged BIR2 domain (aa 124-240 of XIAP) 10 nM, Peptide A 20 nM.
The target in the next experiment is BIR3 domain of XIAP (Homo sapiens (Human), UniProt P98170). Briefly: TR-FRET assay for BIR3 (inhibition of binding of XIAP BIR3 domain to SMAC-derived Peptide A). Conditions: read-out: IC50 BIR3. (In TR-FRET formats the signal depends on donor and acceptor labels being close together.)
Setting [1] is: 6x His-tagged BIR3 domain (aa 241-356 of XIAP) 10 nM, Peptide A 20 nM, TR-FRET.

Where a name gives a salt, the structure may show the parent alone. Read-outs that look alike come from different tables or passages of the source. Some results are limits rather than exact numbers.

With `CN[C@@H](C)C(=O)N[C@H]1CN(C(=O)c2ccc(C(C)=O)cc2)c2ccccc2N(Cc2noc3ccccc23)C1=O` [Example 69d], the IC50 on BIR2 domain of XIAP is 12 nM; at BIR3 domain of XIAP (setting [1]) it was > 54800 nM.
On to `CN[C@@H](C)C(=O)N[C@H]1CN(C(=O)c2ccc(N)cc2)c2cc(Cl)ccc2N(Cc2c(OC)ccc3ccccc23)C1=O` [Example 122, (S)-N-((S)-5-(4-aminobenzoyl)-7-chloro-1-((2-methoxynaphthalen-1-yl)methyl)-2-oxo-2,3,4,5-tetrahydro-1H-benzo[b][1,4]diazepin-3-yl)-2-(methylamino)propanamide hydrochloride], for which the figures for the IC50 at BIR2 domain of XIAP and on BIR3 domain of XIAP (setting [1]) were 13.2 nM and 26400 nM, respectively.
As to `CN[C@@H](C)C(=O)N[C@H]1CN(C(=O)c2ccc(CO)cc2)c2ccccc2N(Cc2c(C)ccc3ccccc23)C1=O` [Example 102, (S)—N—[(S)-5-(4-Hydroxymethyl-benzoyl)-1-(2-methyl-naphthalen-1-ylmethyl)-2-oxo-2,3,4,5-tetrahydro-1H-benzo[b][1,4]diazepin-3-yl]-2-methylamino-propionamide hydrochloride], the figures for the IC50 at BIR2 domain of XIAP and on BIR3 domain of XIAP were 57 nM and > 54800 nM, respectively.
With `CN[C@@H](C)C(=O)N[C@H]1CN(C(=O)c2ccc(C(C)=O)cc2)c2ccccc2N(Cc2c(OCC(F)(F)F)ccc3ccccc23)C1=O` [Example 69a, (S)—N—((S)-5-(4-Acetylbenzoyl)-2-oxo-1-((2-(2,2,2-trifluoroethoxy)naphthalen-1-yl)methyl)-2,3,4,5-tetrahydro-1H-benzo[b][1,4]diazepin-3-yl)-2-(methylamino)propanamide hydrochloride], the half-inhibitory concentration (IC50) was found to be 32 nM on BIR2 domain of XIAP and 47000 nM on BIR3 domain of XIAP.
Consider `CN[C@@H](C)C(=O)N[C@H]1CN(C(=O)CCCCN)c2ccccc2N(Cc2c(OC)ccc3cc(C(=O)O)ccc23)C1=O` [Example 53, 5-(((S)-5-(5-aminopentanoyl)-3-((S)-2-(methylamino)propanamido)-2-oxo-2,3,4,5-tetrahydro-1H-benzo[b][1,4]diazepin-1-yl)methyl)-6-methoxy-2-naphthoic acid hydrochloride], for which the IC50 at BIR2 domain of XIAP is 7 nM; at BIR3 domain of XIAP it was 18600 nM.
`CN[C@@H](C)C(=O)N[C@H]1CN(C(=O)Cc2ccccn2)c2ccccc2N(Cc2c(OC)ccc3cc(Br)ccc23)C1=O` [Example 89c]: the IC50 at BIR2 domain of XIAP was 10 nM; on BIR3 domain of XIAP (setting [1]), 49900 nM.
As for `CN[C@@H](C)C(=O)N[C@H]1CN2CCCNC(=O)c3ccc4c(c(OC)ccc4c3)CN(C1=O)c1ccccc12` [Example 58, Cyclic-5-[(S)-5-(3-amino-propyl)-3-((S)-2-methylamino-propionylamino)-2-oxo-2,3,4,5-tetrahydro-benzo[b][1,4]diazepin-1-ylmethyl]-6-methoxy-naphthalene-2-carboxylic amide hydrochloride], the IC50 on BIR2 domain of XIAP is 358 nM; on BIR3 domain of XIAP (setting [1]) it was 19000 nM.
As for `CN[C@@H](C)C(=O)N[C@H]1CN(C(=O)c2cccc(C(C)O)c2)c2ccccc2N(Cc2c(C)ccc3ccccc23)C1=O` (stereo partly drawn) [Example 118, (2S)-N-[(3S)-1-[3-(1-hydroxyethyl)benzoyl]-5-[(2-methylnaphthalen-1-yl)methyl]-4-oxo-2,3-dihydro-1,5-benzodiazepin-3-yl]-2-(methylamino)propanamide;hydrochloride], the IC50 at BIR2 domain of XIAP is 51.9 nM; on BIR3 domain of XIAP (6x His-tagged BIR3 domain (aa 241-356 of XIAP) 10 nM, Peptide A 20 nM, TR-FRET, hydrochloride) it was 23700 nM.
As for `CN[C@@H](C)C(=O)N[C@H]1CN(C(=O)c2ccc(C(C)O)cc2)c2ccccc2N(Cc2c(OC)ccc3cc(Br)ccc23)C1=O` (stereo partly drawn) [Example 103, (2S)-N-((3S)-1-((6-bromo-2-methoxynaphthalen-1-yl)methyl)-5-(4-(1-hydroxyethyl)benzoyl)-2-oxo-2,3,4,5-tetrahydro-1H-benzo[b][1,4]diazepin-3-yl)-2-(methylamino)propanamide], the IC50 on BIR2 domain of XIAP was 9.14 nM; at BIR3 domain of XIAP (setting [1]), 41100 nM.
The corresponding values for `CN[C@@H](C)C(=O)N[C@H]1CN(C(=O)c2ccc(C(C)O)cc2)c2ccccc2N(Cc2c(OC)ccc3c(Br)cccc23)C1=O` (mixture of isomers) [Example 94, (S)—N—{(S)-1-(5-Bromo-2-methoxy-naphthalen-1-ylmethyl)-5-[4-(1-hydroxy-ethyl)-benzoyl]-2-oxo-2,3,4,5-tetrahydro-1H-benzo[b][1,4]diazepin-3-yl}-2-methylamino-propionamide, mixture of diastereomers] are 9 nM and 46600 nM.
In the case of `CN[C@@H](C)C(=O)N[C@H]1CN(C(=O)c2ccc(C(C)O)cc2)c2ccccc2N(Cc2c(OC)ccc3cc(Br)ccc23)C1=O` (stereo partly drawn) [Example 104, (2S)-N-((3S)-1-((6-bromo-2-methoxynaphthalen-1-yl)methyl)-5-(4-(1-hydroxyethyl)benzoyl)-2-oxo-2,3,4,5-tetrahydro-1H-benzo[b][1,4]diazepin-3-yl)-2-(methylamino)propanamide], the half-inhibitory concentration (IC50) on BIR2 domain of XIAP came to 12 nM; at BIR3 domain of XIAP (setting [1]), 47400 nM.
As to `CN[C@@H](C)C(=O)N[C@H]1CN2C(=O)CCCN(C)C(=O)c3ccc4c(c(OC)ccc4c3)CN(C1=O)c1ccccc12` [Example 112, Cyclic-5-[(S)-5-(3-Amino-pentanoyl)-3-((S)-2-methylamino-propionylamino)-2-oxo-2,3,4,5-tetrahydro-benzo[b][1,4]diazepin-1-ylmethyl]-6-methoxy-naphthalene-2-carboxylic amide hydrochloride], the IC50 turned out to be 248 nM at BIR2 domain of XIAP and 41200 nM on BIR3 domain of XIAP (setting [1]).
As to `CN[C@@H](C)C(=O)N[C@H]1CN(C(=O)c2ccc(C(C)=O)cc2)c2ccccc2N(Cc2c(OCC(F)(F)F)c[n+]([O-])c3ccccc23)C1=O` [Example 70, 4-(((S)-5-(4-Acetylbenzoyl)-3-((S)-2-(methylamino)propanamido)-2-oxo-2,3,4,5-tetrahydro-1H-benzo[b][1,4]diazepin-1-yl)methyl)-3-(2,2,2-trifluoroethoxy)quinoline 1-oxide hydrochloride], the IC50 at BIR2 domain of XIAP was determined as 41 nM; at BIR3 domain of XIAP (setting [1]), 52900 nM.
Regarding `CN[C@@H](C)C(=O)N[C@H]1CN(C(=O)c2ccc3[nH]ncc3c2)c2ccccc2N(Cc2c(C)ccc3ccccc23)C1=O` [Example 141, (25)-N-[(3S)-1-(1H-indazole-5-carbonyl)-5-[(2-methylnaphthalen-1-yl)methyl]-4-oxo-2,3-dihydro-1,5-benzodiazepin-3-yl]-2-(methylamino)propanamide], the half-maximal inhibitory concentration (IC50) came to 39.3 nM on BIR2 domain of XIAP and 48300 nM on BIR3 domain of XIAP (setting [1]).
Take `CN[C@@H](C)C(=O)N[C@H]1CN(C(=O)CCCCN)c2ccccc2N(Cc2c(OC)ccc3cc(C(=O)OC)ccc23)C1=O` [Example 52, 5-[(S)-5-(5-amino-pentanoyl)-3-((S)-2-methylamino-propionylamino)-2-oxo-2,3,4,5-tetrahydro-benzo[b][1,4]diazepin-1-ylmethyl]-6-methoxy-naphthalene-2-carboxylic acid methyl ester hydrochloride]: the IC50 was 47 nM at BIR2 domain of XIAP and > 54800 nM on BIR3 domain of XIAP.
For `CN[C@@H](C)C(=O)N[C@H]1CN(C(=O)CCCC(C)=O)c2ccccc2N(Cc2c(C)ccc3ccccc23)C1=O` [Example 13d], the half-maximal inhibitory concentration (IC50) at BIR2 domain of XIAP is 175 nM; at BIR3 domain of XIAP (setting [1]), > 54800 nM.
Consider `CN[C@@H](C)C(=O)N[C@H]1CN(C(=O)c2ccn(C)n2)c2ccccc2N(Cc2c(OC)ccc3cc(Br)ccc23)C1=O` [Example 76e], for which the values for the IC50 at BIR2 domain of XIAP and at BIR3 domain of XIAP (setting [1]) were 10 nM and 33700 nM, respectively.

As a reminder, the IC50 is the concentration needed to halve the response being measured.
